Laboratory results: ChEMBL document CHEMBL1143444, “Dual EGFR/ErbB-2 inhibitors from novel pyrrolidinyl-acetylenic thieno[3,2-d]pyrimidines” (Bioorg Med Chem Lett, 2008)

By UniProt entry, the sequences of proteins in these tests, tags left out.
UniProt P04626, whole entry: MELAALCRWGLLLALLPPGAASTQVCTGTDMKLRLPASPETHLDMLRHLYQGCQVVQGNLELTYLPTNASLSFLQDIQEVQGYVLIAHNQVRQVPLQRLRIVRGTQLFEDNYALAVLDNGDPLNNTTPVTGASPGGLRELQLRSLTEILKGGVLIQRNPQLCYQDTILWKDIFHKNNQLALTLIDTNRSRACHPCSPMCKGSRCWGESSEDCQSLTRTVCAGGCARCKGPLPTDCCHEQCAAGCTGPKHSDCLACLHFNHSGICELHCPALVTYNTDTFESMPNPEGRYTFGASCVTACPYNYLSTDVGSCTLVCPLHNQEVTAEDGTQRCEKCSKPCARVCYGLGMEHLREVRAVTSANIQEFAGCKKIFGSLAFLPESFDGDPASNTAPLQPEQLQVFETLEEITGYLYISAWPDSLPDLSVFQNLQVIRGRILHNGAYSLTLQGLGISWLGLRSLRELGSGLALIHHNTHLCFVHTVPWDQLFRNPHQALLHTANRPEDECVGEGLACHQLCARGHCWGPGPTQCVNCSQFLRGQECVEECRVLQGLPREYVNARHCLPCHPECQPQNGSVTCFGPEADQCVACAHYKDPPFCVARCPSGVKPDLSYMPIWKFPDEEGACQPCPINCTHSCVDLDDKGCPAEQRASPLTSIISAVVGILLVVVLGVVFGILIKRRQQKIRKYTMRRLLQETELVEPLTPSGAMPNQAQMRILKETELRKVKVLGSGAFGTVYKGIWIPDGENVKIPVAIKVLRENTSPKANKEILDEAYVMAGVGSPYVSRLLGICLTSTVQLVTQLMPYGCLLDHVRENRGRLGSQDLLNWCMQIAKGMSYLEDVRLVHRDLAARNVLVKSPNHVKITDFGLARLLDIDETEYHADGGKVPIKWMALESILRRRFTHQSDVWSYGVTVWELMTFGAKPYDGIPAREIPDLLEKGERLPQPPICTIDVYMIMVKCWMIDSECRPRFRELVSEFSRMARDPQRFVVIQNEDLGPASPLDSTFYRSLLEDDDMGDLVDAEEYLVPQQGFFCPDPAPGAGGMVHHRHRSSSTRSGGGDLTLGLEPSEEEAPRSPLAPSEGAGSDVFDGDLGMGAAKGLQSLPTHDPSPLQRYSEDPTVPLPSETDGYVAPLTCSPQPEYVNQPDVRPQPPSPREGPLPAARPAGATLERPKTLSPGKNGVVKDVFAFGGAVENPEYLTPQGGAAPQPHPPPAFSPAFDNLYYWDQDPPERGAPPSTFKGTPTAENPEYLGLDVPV
UniProt P00533, whole entry: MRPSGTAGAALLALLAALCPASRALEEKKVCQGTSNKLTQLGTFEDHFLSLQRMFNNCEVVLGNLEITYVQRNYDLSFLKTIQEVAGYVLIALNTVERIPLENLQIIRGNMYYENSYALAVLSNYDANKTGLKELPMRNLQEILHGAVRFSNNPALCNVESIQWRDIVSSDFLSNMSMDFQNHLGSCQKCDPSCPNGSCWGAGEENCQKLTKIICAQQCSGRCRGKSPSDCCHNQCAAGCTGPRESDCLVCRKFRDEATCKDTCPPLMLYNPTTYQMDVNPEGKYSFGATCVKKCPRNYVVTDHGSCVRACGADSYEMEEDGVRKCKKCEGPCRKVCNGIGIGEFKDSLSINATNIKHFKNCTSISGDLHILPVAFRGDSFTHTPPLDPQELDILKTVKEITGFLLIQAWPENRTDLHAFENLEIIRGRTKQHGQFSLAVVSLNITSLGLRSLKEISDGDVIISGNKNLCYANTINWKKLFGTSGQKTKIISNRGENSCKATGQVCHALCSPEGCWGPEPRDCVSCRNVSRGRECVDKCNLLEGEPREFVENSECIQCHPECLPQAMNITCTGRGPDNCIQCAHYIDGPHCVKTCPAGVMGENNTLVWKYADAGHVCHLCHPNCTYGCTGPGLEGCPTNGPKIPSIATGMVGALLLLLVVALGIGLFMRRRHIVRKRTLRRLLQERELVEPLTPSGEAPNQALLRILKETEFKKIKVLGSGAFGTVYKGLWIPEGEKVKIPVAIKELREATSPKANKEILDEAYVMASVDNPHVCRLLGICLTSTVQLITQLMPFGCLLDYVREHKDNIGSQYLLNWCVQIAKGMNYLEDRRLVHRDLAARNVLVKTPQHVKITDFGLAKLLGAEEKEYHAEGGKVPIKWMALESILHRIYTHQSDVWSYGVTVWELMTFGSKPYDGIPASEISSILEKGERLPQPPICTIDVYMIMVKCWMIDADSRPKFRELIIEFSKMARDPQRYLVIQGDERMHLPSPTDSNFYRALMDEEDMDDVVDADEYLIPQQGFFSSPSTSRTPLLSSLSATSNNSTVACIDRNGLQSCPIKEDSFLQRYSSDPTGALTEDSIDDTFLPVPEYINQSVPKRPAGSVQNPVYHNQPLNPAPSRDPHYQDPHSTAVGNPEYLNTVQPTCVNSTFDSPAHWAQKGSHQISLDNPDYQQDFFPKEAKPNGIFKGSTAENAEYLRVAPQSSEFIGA

Tests used:
BT-474 = experiment: Antiproliferative activity against human BT474 cells overexpressing ErbB2 after 3 days by methylene blue staining; conditions: BT-474, 72 h
[1] = molecular target: Receptor tyrosine-protein kinase erbB-2 (Homo sapiens, UniProt P04626)
HN5 = experiment: Antiproliferative activity against human HN5 cells overexpressing EGFR after 3 days by methylene blue staining; conditions: HN5, 72 h
[2] = molecular target: Epidermal growth factor receptor (Homo sapiens, UniProt P00533); experiment: Inhibition of EGFR kinase

Compound | IC50 (BT-474) | IC50 [1] | IC50 (HN5) | IC50 [2]
COCCN1CCC[C@@H]1C#Cc1cc2ncnc(Nc3ccc(OCc4cccc(F)c4)c(Cl)c3)c2s1 | 110 nM | 110 nM |  | 
CCNC(=O)O[C@H]1CN[C@H](C#Cc2cc3ncnc(Nc4ccc(OCc5cccc(F)c5)c(Cl)c4)c3s2)C1 [GSK-192082A] |  | 43 nM |  | 
O=C(O[C@H]1CN[C@H](C#Cc2cc3ncnc(Nc4ccc(OCc5cccc(F)c5)c(Cl)c4)c3s2)C1)N1CCOCC1 [GW869810X] |  |  | 160 nM | 65 nM
